Measured affinities in a library of Ab-91 heavy chain variants

The measurements come from Engelhart et al. 2022 (doi:10.1038/s41597-022-01779-4) through the FLAb antibody collection.

Target: peptide PDVDLGDISGINAS, taken from heptad repeat 2 (HR2) of SARS-CoV-2 spike.

Parent: Ab-91, a human scFv built as VL, a 15-residue (Gly4Ser)3 linker, VH. Only the CDRs of the heavy chain vary.
VL: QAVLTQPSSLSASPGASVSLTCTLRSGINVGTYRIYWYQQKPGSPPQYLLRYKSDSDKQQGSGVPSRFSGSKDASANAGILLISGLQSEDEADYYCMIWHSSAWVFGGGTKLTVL
VH: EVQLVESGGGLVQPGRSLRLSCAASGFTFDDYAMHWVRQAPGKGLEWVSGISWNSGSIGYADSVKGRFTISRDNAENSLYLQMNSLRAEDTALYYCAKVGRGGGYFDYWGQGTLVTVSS

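The parent was found by panning a naive human phage display library on the peptide. Library AAYL51 holds single substitutions and randomly drawn double and triple substitutions in the CDRs. The scFvs were displayed on barcoded MATa yeast, the peptide on MATalpha yeast. After mating in shaken culture at 30 °C for 16 h, diploids were selected and their barcode pairs sequenced. A regression on co-assayed BCL2-family reference pairs converts the normalised counts of each replicate to an apparent Kd. The assay was run in three technical replicates.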

Positions count from residue 1 of the parent VH; Y32V puts V in place of Y. This list gathers variants with a substitution at Y32 (VH, numbered from residue 1). Each Kd is an estimate from the mating assay, the geometric mean of the replicates in which the pair was seen; lower is stronger. An entry "nd" has no value in the source: the pair was not observed among the diploids in any replicate. This suggests poor binding but is not conclusive. For reference, the parent read 72 nM as the reference entry and 7.5 nM as a member of this library. Background: pairings of library AAYL51 with three empty control strains gave a value in 21% of cases (median 34 µM, 5th percentile 1.8 µM). Values in that range, when seen in few replicates, are hard to tell from nonspecific mating. The control count says in how many pairings with the empty strains this scFv gave a signal.

With Y32V/G59C/F106W the result was nd (0 of 3 replicates; controls 1 of 9).
With Y32Q/G50V/S52I the result was nd (0 of 3 replicates; controls 0 of 9).
With G26E/Y32F/Y108I the result was 53 µM (3 of 3 replicates; controls 5 of 9).
With Y32Q the result was 240 µM (2 of 3 replicates; controls 1 of 9).
With Y32C/S55V/R101N the result was 220 µM (1 of 3 replicates; controls 2 of 9).
With Y32P/V99Y/G103I the result was nd (0 of 3 replicates; controls 0 of 9).
With Y32G/S57Q/Y108L the result was 7.9 µM (3 of 3 replicates; controls 5 of 9).
With Y32D/D62N/V99M the result was 610 µM (2 of 3 replicates; controls 4 of 9).
With D30S/Y32H/M34S the result was 130 µM (2 of 3 replicates; controls 4 of 9).
With Y32V/Y60V/F106N the result was 800 nM (3 of 3 replicates; controls 3 of 9).
With Y32R/S57M/Y60R the result was nd (0 of 3 replicates; controls 0 of 9).
With T28C/Y32H/G100P the result was 150 µM (2 of 3 replicates; controls 6 of 9).
With Y32K/M34L/Y60P the result was 3.6 µM (1 of 3 replicates; controls 0 of 9).
With Y32P/M34A/D62Q the result was 380 µM (3 of 3 replicates; controls 5 of 9).
With Y32R/G56W the result was nd (0 of 3 replicates; controls 0 of 9).
With G26L/T28W/Y32M the result was 290 µM (1 of 3 replicates; controls 1 of 9).
With D30E/Y32M/A61T the result was 13 nM (3 of 3 replicates; controls 1 of 9).
With Y32E/S57A/V99H the result was nd (0 of 3 replicates; controls 0 of 9).
With Y32P/H35R/D107R the result was nd (0 of 3 replicates; controls 0 of 9).
With D31Q/Y32N/S55L the result was 13 µM (2 of 3 replicates; controls 4 of 9).
With Y32P/G56F/A61C the result was 300 µM (1 of 3 replicates; controls 3 of 9).
With Y32F/A61D/G104H the result was 690 µM (1 of 3 replicates; controls 0 of 9).
With Y32V/G59A/G102A the result was nd (0 of 3 replicates; controls 1 of 9).
With G26L/Y32L/I58V the result was nd (0 of 3 replicates; controls 1 of 9).
With Y32K/G103M/Y105S the result was 100 µM (2 of 3 replicates; controls 5 of 9).
With Y32F/G56P/R101L the result was nd (0 of 3 replicates; controls 0 of 9).
With F29T/Y32N/G103F the result was 63 µM (1 of 3 replicates; controls 5 of 9).
With D30E/Y32H/S63A the result was nd (0 of 3 replicates; controls 0 of 9).
With Y32R/I58K the result was nd (0 of 3 replicates; controls 0 of 9).
With D31S/Y32T/K65V the result was 7.8 nM (3 of 3 replicates; controls 8 of 9).
With Y32T/W53V/N54H the result was 29 µM (1 of 3 replicates; controls 5 of 9).
With Y32N/S52C/K65Y the result was 61 µM (1 of 3 replicates; controls 2 of 9).
With Y32S/A61I/Y108T the result was nd (0 of 3 replicates; controls 0 of 9).
With F27G/Y32G/I51V the result was 120 µM (2 of 3 replicates; controls 3 of 9).
With D31C/Y32C/R101D the result was 420 nM (3 of 3 replicates; controls 2 of 9).
With Y32Q/S55W/Y60L the result was nd (0 of 3 replicates; controls 0 of 9).

A selection of 2 entries from above:

{"changes": "Y32S/A61I/Y108T", "apparent Kd": "nd", "seen in": "0 of 3", "control signals": "0 of 9"}
{"changes": "F29T/Y32N/G103F", "apparent Kd": "63 µM", "seen in": "1 of 3", "control signals": "5 of 9"}